Entries after “also recorded” stand apart in the source; their conditions may differ.

The results in this text go back to patent US12649746B2, “Ketorolaco derivative, pharmaceutical composition and preparation method therefor and use thereof” (NANJING HERON PHARMACEUTICAL SCIENCE AND TECHNOLOGY CO., …, priority 2020, dated 2026).

A short description of data set [1]: Enzymolysis kinetics experiment of compounds in plasma. The note with it: for degradation / metabolic rate in human plasma (in words): up to 120 min; for metabolic rates (in words): summary statement, metabolized in a human body.
Data set [2] is described as follows: By-product toxicity test (metabolic byproducts in the human body). Particulars: for Metabolic by-products in human body: by the metabolic pathways of the compounds in the human body; for Toxicity: toxicity of the metabolic by-products in human body.

For the compound `CCOC(=O)OC(CC)OC(=O)C1CCn2c(C(=O)c3ccccc3)ccc21` (centres unmarked) [N15], in data set [1], the “degradation / metabolic rate in human plasma (in words)” value was “accelerated degradation and increased production of ketorolac; also recorded: relatively fast”; the “metabolic rates (in words)” value is listed as “higher metabolic rates”. Also, in data set [2], the “Metabolic by-products in human body” value was “Propionaldehyde and ethanol”; the Toxicity result is on record as “low toxicity of byproducts; also recorded: relatively low”.
In the case of `COC(=O)OC(OC(=O)C1CCn2c(C(=O)c3ccccc3)ccc21)C(C)C` (centres unmarked) [N17], the “Metabolic by-products in human body” value in data set [2] is “Isobutyraldehyde and methanol”.
For the compound `CCC(OC(=O)OC)OC(=O)C1CCn2c(C(=O)c3ccccc3)ccc21` (centres unmarked) [N14], in data set [2], the “Metabolic by-products in human body” value was “Propionaldehyde and methanol”; the Toxicity result was “Methanol is more toxic”.
As to `CC(C)C(OC(=O)OC1CCCCC1)OC(=O)C1CCn2c(C(=O)c3ccccc3)ccc21` (centres unmarked) [N21], in data set [1], the “metabolic rates (in words)” value is recorded as “slow metabolic rates”. Besides, in data set [2], the “Metabolic by-products in human body” value was “Isobutyraldehyde and cyclohexanol”; the Toxicity entry is “relatively low toxicity of byproducts”.
Take `CCOC(=O)OC(OC(=O)C1CCn2c(C(=O)c3ccccc3)ccc21)C(C)C` (centres unmarked) [N18]: the “Metabolic by-products in human body” value in data set [2] was “Isobutyraldehyde and ethanol”.
For `CCC(OC(=O)OC1CCCCC1)OC(=O)C1CCn2c(C(=O)c3ccccc3)ccc21` (centres unmarked) [N20], the “metabolic rates (in words)” value in data set [1] was “slow metabolic rates”. Besides, in data set [2], the “Metabolic by-products in human body” value is “Propionaldehyde and cyclohexanol”; the Toxicity entry is “relatively low toxicity of byproducts”.
Regarding `CCC(OC(=O)OC(C)C)OC(=O)C1CCn2c(C(=O)c3ccccc3)ccc21` (centres unmarked) [N16], in data set [1], the “degradation / metabolic rate in human plasma (in words)” value was “accelerated degradation and increased production of ketorolac”; the “metabolic rates (in words)” value is “higher metabolic rates”. Besides, the Toxicity result in data set [2] is “low toxicity of byproducts; also recorded: relatively low”.
